Earlier results on one compound are cited in paper PMC6527222 (PLoS ONE, 2019).

As a reminder, the pKi is the negative decadic logarithm of the Ki, by convention in mol/L.

The series addresses α2B-AR. Conditions: given negative; cited from earlier work.

In the case of `COc1ccccc1OCCNCC(O)COc1cccc2[nH]c3ccccc3c12` (stereo not shown) [Carvedilol], the “pKi at α2B” value was -5.5 ± 0.1.
